scFv variants of Ab-14 (heavy chain) against a SARS-CoV-2 spike peptide

Antigen: PDVDLGDISGINAS, a 14-residue peptide of the SARS-CoV-2 spike HR2 region.

Each scFv is VH, three GGGGS repeats, VL, as in the parent Ab-14, and differs from it in the CDRs of the heavy chain only.
VH: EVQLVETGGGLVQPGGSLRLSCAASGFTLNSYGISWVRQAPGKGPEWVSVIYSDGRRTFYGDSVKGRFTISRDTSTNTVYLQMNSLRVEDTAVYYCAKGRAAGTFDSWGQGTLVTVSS
VL: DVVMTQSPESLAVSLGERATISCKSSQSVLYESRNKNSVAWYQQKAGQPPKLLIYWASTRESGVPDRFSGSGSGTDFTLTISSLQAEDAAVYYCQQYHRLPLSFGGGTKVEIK

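The starting antibody came from a phage panning campaign against this peptide. In library AAYL49, one, two or three CDR residues were substituted; doubles and triples were drawn at random. Affinity was read by AlphaSeq, a pooled yeast mating assay with surface-displayed partners. Binding brings cells together so that they mate, and sequencing counts the barcode pairs among the diploids. A regression on co-assayed BCL2-family reference pairs converts the normalised counts of each replicate to an apparent Kd. The assay was run in three technical replicates.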

The parent's heavy chain CDRs are GFTLNSYGIS, VIYSDGRRTFYGDSVK, GRAAGTFDS; each variant's own CDRs replace them letter for letter.
Values are log10 of the apparent Kd in nM; lower means stronger binding.
Where no diploid with the target was found in that replicate, the entry reads "n.d.": below detection, most likely a poor binder, though not proof of it.
In this assay the parent's reference entry averaged 0.65; its copy inside this library read 4.11 (one replicate of three).
As a blank, each scFv also met three strains without target: over library AAYL49, 15% of these pairings were detected, typically at 4.06 and seldom below 2.83. The control count says in how many pairings with the empty strains this scFv gave a signal, with their mean in brackets.

CDR-H1,CDR-H2,CDR-H3,"replicates, log10 nM",signal with controls
GFTLNIYGIS,VPYSDGRRTFYGDSVK,GRAMGTFDS,n.d. n.d. n.d.,2 of 9 (3.88)
GFTLNSYRIT,VIYEDGRRTFYGDSVK,GRAAGTFDS,3.67 n.d. n.d.,0 of 9
GFTLNHYGIS,VIYSDGRRTFYGDSMK,GRAAGTGDS,3.20 2.91 n.d.,0 of 9
KFTLNSYGIS,VIYSDGRRTFYGASVK,GRAAGTFNS,n.d. n.d. n.d.,0 of 9
GFTLNSYGIS,VIYSDIRYTFYMDSVK,GRAAGTFDS,n.d. 3.90 n.d.,2 of 9 (3.48)
GFTLNSYGIS,VIYSRGRRTFYGDLVK,GRAAGTWDS,n.d. n.d. n.d.,0 of 9
GFTDNGYGGS,VIYSDGRRTFYGDSVK,GRAAGTFDS,4.63 3.78 n.d.,5 of 9 (3.83)
GFTLNSYGIS,VIYSDGRRTFYGWSVK,GRAGETFDS,n.d. n.d. n.d.,0 of 9
GFTLNSYGIS,VIYSDGRRTCFGDSNK,GRAAGTFDS,n.d. n.d. n.d.,0 of 9
GFTLNSYGIS,VIYSDGRRTDYGDSVK,GRAAGLNDS,n.d. 3.53 n.d.,4 of 9 (4.06)
GFVLNSYGIS,VIYSDGRRWFYGDSVK,GRAAGVFDS,n.d. n.d. n.d.,2 of 9 (3.24)
GFTLNSYGIS,VIYSDGRRTFYGDSVK,WRAAGTFDH,n.d. 3.43 n.d.,3 of 9 (3.80)
GFTLNSYGIS,VIYCDGRRTFYGDSVK,GRAAGTKDW,n.d. n.d. n.d.,1 of 9 (2.51)
GFTLNSYGIS,VIYEDGRRTFYGDSVK,IRAAGTGDS,3.98 4.04 n.d.,1 of 9 (4.25)
GYTLNSYGIS,VIYSDGRRTFYGSSVK,GRAAGTNDS,5.35 n.d. n.d.,0 of 9
TFTLNSKGIL,VIYSDGRRTFYGDSVK,GRAAGTFDS,n.d. 3.61 4.98,1 of 9 (3.87)
GFTLNSYGIS,VIYSDGRRTFYGKSIK,GRAAGTLDS,4.57 n.d. n.d.,2 of 9 (4.27)
GFTLNSYGIL,VIYSDGRRTFYGDSSK,GRAAGTWDS,n.d. 3.16 n.d.,2 of 9 (3.16)
GLTLNSYGIS,VIYSDGRRHFYGDLVK,GRAAGTFDS,n.d. n.d. n.d.,0 of 9
GFTLYSYGIS,VIYRDGRRTFYGDSVK,GRAARTFDS,n.d. n.d. n.d.,0 of 9
GFTLNSYGIS,VIYKWGRRTFYGDSVK,GRAAGTFDS,4.81 4.52 n.d.,3 of 9 (4.47)
GFTLNSYGIS,VIYSDGITTFYGGSVK,GRAAGTFDS,n.d. n.d. n.d.,0 of 9
GQKLNSYGIS,VIYSDGRRTFYGDSVK,GRAAGRFDS,1.35 1.95 1.78,0 of 9
GFTLNSYGIS,VIYSPGVRTFYGDSVK,SRAAGTFDS,n.d. n.d. n.d.,0 of 9
GFTLNSYGII,MIYSDGRLTFYGDSVK,GRAAGTFDS,n.d. n.d. n.d.,0 of 9
GFTLNSYGIS,VIYSEGRRTFYGDSVK,GRASGDFDS,n.d. 3.37 n.d.,2 of 9 (4.30)
GFTLNSYGIS,VIYSDWRRTFYGDSVH,GRAAGHFDS,n.d. n.d. n.d.,1 of 9 (3.09)
GFTLNSYEIS,VIYSDGRRTFYGDSVK,GRAAGTEDS,n.d. n.d. n.d.,1 of 9 (3.58)
GFTLNRYGIS,VIYSDGRRTFYGDSVK,GRAAGTFDM,1.12 1.04 0.91,1 of 9 (4.59)
GFTLNSYGIS,VIYSHGRRTFYGVSSK,GRAAGTFDS,n.d. n.d. n.d.,0 of 9
GHHLNSYGIS,VIYSDGRRTFYGKSVK,GRAAGTFDS,n.d. n.d. n.d.,1 of 9 (2.77)
GFFLNSYGIS,VIYSDGRETFYGDSVK,GRAAGTFDN,n.d. n.d. n.d.,0 of 9
GFTLNSTGIS,VICSDGRRTFYGDSVK,GRAAGTKDS,n.d. 4.75 n.d.,0 of 9
GFTLNSYGIS,VIYSDGARTQYGDSVK,GAAAGTFDS,2.21 2.51 2.51,0 of 9
GFTLNSYRIS,VIYSDGRRTQYGDSVK,GRAQGTFDS,n.d. n.d. n.d.,2 of 9 (4.02)
GFTLNNYGIS,VIFSDGRRTFYLDSVK,GRAAGTFDS,5.23 n.d. 2.69,1 of 9 (3.63)
GFTLNSYGIS,VIYSDGRRTFYPDSVK,GQAAGTGDS,n.d. n.d. 4.52,0 of 9
GFTLNSYGGS,VSYSDGRRTFYGDSVK,GRAAGTFDS,n.d. n.d. n.d.,0 of 9
GFTQNSYGIS,HIYDDGRRTFYGDSVK,GRAAGTFDS,5.54 n.d. n.d.,2 of 9 (4.25)
GATLNSYGIS,VTYSDGRRTFYGDSVK,GRAAGTFDS,n.d. n.d. n.d.,0 of 9
GFTLNSQGMS,VIYSDGRRTFSGDSVK,GRAAGTFDS,5.89 n.d. n.d.,1 of 9 (4.46)
GFTLNSYGIS,VIYSDTRRTFYGDSVK,GRAMGTFDS,n.d. n.d. n.d.,0 of 9

A selection of 4 entries from above:

{"CDR-H1": "GFFLNSYGIS", "CDR-H2": "VIYSDGRETFYGDSVK", "CDR-H3": "GRAAGTFDN", "replicates, log10 nM": "n.d. n.d. n.d.", "signal with controls": "0 of 9"}
{"CDR-H1": "GQKLNSYGIS", "CDR-H2": "VIYSDGRRTFYGDSVK", "CDR-H3": "GRAAGRFDS", "replicates, log10 nM": "1.35 1.95 1.78", "signal with controls": "0 of 9"}
{"CDR-H1": "GFTLNSYGIS", "CDR-H2": "VIYEDGRRTFYGDSVK", "CDR-H3": "IRAAGTGDS", "replicates, log10 nM": "3.98 4.04 n.d.", "signal with controls": "1 of 9 (4.25)"}
{"CDR-H1": "GFTLNSYGIS", "CDR-H2": "VIYSPGVRTFYGDSVK", "CDR-H3": "SRAAGTFDS", "replicates, log10 nM": "n.d. n.d. n.d.", "signal with controls": "0 of 9"}

Source: Engelhart et al. 2022 (doi:10.1038/s41597-022-01779-4), MIT Lincoln Laboratory and A-Alpha Bio; data file from the FLAb repository.